Biological target: Tyrosine-protein kinase JAK1 (Homo sapiens, UniProt P23458)
Test: HTRF Biochemical Assay
Conditions: 25 °C

Sequences of proteins named here, by UniProt entry; tags and fusion partners are left off. A change or cut given only in a name is not applied to a line headed by its entry.
UniProt P23458: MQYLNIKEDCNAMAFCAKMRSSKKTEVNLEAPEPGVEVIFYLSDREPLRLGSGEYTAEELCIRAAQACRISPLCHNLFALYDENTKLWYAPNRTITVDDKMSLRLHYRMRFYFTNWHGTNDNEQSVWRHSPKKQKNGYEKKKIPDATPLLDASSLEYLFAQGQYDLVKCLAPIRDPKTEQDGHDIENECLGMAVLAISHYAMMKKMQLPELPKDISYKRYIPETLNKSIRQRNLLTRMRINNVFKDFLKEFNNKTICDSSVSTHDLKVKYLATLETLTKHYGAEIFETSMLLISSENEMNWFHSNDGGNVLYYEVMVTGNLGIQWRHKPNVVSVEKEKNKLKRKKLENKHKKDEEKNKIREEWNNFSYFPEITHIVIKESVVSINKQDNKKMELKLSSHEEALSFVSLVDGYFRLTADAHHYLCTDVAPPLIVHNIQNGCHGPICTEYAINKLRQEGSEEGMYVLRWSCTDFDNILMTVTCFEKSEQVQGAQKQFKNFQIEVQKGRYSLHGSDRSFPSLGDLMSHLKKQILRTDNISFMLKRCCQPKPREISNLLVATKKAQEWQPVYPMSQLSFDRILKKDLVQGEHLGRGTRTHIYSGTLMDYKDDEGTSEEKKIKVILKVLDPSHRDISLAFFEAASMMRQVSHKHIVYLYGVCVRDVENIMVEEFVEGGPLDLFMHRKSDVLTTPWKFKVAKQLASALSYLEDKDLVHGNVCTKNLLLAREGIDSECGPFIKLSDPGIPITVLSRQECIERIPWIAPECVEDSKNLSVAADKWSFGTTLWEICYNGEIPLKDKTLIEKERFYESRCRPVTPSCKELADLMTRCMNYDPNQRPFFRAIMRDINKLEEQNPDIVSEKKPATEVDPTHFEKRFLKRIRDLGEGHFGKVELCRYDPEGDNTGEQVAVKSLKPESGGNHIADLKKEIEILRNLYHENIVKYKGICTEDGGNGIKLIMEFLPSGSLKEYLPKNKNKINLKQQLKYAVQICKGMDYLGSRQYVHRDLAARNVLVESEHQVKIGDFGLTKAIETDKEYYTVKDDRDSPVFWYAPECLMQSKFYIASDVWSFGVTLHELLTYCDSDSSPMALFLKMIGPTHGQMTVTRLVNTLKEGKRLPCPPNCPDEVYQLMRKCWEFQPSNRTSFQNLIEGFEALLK

- IC50: 113 nM
SMILES: COC1(c2nc3nc(-c4noc(=O)[nH]4)nc(-c4cncc(Cl)c4)c3n2C[C@H]2CC[C@H](C)CC2)CCCCC1 [US9328099, 48-2]
